From ChEMBL document CHEMBL1806384, “Identification of benzofuran-4,5-diones as novel and selective non-hydroxamic acid, non-peptidomimetic based inhibitors of human peptide deformylase” (Bioorg Med Chem Lett, 2011)

How the values were obtained:
Type in all cases: functional, cell-based
[1] = Cytotoxicity against human CWR22 cells
HL-60 = assay: Cytotoxicity against human vincristine-resistant HL60 cells
[2] = Cytotoxicity against human Meso47 cells

SMILES	IC50 [1] [µM]	IC50 (HL-60) [µM]	IC50 [2] [µM]
COc1ccc(C(=O)c2coc3c2C(=O)C(=O)C(Cl)=C3)cc1	69	–	–
COc1ccc(C(=O)c2coc3c2C(=O)C(=O)C(Br)=C3)cc1	71	67	71
COc1cc(C(=O)c2coc3c2C(=O)C(=O)C(Cl)=C3Cl)cc(OC)c1OC	67	–	–
